Measurements from ChEMBL document CHEMBL1152507, “An extended study of dimeric phenyl tropanes” (Bioorg Med Chem, 2009).

Sequences of proteins named here, by UniProt entry; tags and fusion partners are left off.
UniProt P31645, whole entry: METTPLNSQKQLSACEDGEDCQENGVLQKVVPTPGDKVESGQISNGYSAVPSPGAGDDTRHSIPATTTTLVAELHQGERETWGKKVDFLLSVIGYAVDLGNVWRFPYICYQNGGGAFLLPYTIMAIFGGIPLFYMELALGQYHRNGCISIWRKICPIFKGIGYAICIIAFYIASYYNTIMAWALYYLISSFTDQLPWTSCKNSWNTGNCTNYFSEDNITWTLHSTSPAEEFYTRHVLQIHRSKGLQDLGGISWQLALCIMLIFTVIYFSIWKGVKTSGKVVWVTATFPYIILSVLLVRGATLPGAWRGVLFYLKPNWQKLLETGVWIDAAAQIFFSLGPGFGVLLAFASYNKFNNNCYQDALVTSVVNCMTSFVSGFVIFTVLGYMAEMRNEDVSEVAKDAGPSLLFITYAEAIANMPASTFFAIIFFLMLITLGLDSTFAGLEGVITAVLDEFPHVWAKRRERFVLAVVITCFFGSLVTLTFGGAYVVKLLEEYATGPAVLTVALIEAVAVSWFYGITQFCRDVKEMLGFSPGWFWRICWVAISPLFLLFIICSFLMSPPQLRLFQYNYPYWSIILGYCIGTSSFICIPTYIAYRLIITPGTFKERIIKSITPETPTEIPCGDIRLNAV
UniProt P23975, whole entry: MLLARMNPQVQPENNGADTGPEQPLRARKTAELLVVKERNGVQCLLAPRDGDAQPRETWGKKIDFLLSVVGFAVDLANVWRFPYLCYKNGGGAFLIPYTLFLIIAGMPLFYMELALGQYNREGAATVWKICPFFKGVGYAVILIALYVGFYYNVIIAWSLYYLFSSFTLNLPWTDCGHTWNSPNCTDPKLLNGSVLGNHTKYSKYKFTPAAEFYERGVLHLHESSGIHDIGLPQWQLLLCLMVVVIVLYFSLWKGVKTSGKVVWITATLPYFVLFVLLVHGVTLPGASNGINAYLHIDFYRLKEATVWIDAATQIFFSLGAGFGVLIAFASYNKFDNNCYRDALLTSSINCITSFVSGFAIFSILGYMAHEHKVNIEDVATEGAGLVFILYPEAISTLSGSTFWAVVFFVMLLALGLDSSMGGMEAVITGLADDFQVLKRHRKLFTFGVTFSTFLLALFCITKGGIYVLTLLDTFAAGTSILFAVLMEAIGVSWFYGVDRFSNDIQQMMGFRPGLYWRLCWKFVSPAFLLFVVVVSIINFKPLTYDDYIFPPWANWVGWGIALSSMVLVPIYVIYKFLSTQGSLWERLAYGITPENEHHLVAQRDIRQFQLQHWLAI

Key:
Homo sapiens [1] = species on record: Homo sapiens; assay: Selectivity ratio of Ki for human NET to Ki for human DAT
[2] = biological target: Sodium-dependent serotonin transporter (Homo sapiens, UniProt P31645); assay: Displacement of [125I]methyl 3-(4-iodophenyl)-8-methyl-8-aza-bicyclo[3.2.1]octane-2-carboxylate from human recombinant SERT expressed in african green monkey COS1 cells by liquid scintillation counting; assay type: cell-based, COS-1
In short: (§1)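 Membranes from COS-1 cells stably expressing cloned human transporter; cells scraped, homogenized in ice-cold 150 mM NaCl/50 mM Tris/20 mM EDTA, pelleted at 12,000g, resuspended in PBSCM, stored at -80 °C. 5 µg protein/well incubated with test drug and 0.1–0.25 nM 125I-radioligand for 1 h at 20 °C. Filtered on PEI-presoaked GF/B filters, washed thrice with ice-cold water.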

Homo sapiens [3] = species on record: Homo sapiens; assay: Selectivity ratio of Ki for human SERT to Ki for human DAT
[4] = biological target: Sodium-dependent noradrenaline transporter (Homo sapiens, UniProt P23975); assay: Displacement of [125I]methyl 3-(4-iodophenyl)-8-methyl-8-aza-bicyclo[3.2.1]octane-2-carboxylate from human recombinant NET expressed in african green monkey COS1 cells by liquid scintillation counting; assay type: cell-based, COS-1; in short: as §1

In the case of COC(=O)[C@@H]1C2CCC(C[C@@H]1c1ccc(Cl)cc1)N2C (some centres undefined), the Ratio Ki (Homo sapiens [1]) is reported as 14, the Ki [2] is reported as 21 nM and the Ratio Ki (Homo sapiens [3]) is reported as 7.8. For the same compound, the Ki [4] was 39 nM.
